Data taken from ChEMBL document CHEMBL3588792, “Selective Acetamidine-Based Nitric Oxide Synthase Inhibitors: Synthesis, Docking, and Biological Studies” (ACS Med Chem Lett, 2015).

Target: T1, Nitric oxide synthase 3 (Bos taurus, UniProt P29473)
T1 sequence (P29473 whole entry): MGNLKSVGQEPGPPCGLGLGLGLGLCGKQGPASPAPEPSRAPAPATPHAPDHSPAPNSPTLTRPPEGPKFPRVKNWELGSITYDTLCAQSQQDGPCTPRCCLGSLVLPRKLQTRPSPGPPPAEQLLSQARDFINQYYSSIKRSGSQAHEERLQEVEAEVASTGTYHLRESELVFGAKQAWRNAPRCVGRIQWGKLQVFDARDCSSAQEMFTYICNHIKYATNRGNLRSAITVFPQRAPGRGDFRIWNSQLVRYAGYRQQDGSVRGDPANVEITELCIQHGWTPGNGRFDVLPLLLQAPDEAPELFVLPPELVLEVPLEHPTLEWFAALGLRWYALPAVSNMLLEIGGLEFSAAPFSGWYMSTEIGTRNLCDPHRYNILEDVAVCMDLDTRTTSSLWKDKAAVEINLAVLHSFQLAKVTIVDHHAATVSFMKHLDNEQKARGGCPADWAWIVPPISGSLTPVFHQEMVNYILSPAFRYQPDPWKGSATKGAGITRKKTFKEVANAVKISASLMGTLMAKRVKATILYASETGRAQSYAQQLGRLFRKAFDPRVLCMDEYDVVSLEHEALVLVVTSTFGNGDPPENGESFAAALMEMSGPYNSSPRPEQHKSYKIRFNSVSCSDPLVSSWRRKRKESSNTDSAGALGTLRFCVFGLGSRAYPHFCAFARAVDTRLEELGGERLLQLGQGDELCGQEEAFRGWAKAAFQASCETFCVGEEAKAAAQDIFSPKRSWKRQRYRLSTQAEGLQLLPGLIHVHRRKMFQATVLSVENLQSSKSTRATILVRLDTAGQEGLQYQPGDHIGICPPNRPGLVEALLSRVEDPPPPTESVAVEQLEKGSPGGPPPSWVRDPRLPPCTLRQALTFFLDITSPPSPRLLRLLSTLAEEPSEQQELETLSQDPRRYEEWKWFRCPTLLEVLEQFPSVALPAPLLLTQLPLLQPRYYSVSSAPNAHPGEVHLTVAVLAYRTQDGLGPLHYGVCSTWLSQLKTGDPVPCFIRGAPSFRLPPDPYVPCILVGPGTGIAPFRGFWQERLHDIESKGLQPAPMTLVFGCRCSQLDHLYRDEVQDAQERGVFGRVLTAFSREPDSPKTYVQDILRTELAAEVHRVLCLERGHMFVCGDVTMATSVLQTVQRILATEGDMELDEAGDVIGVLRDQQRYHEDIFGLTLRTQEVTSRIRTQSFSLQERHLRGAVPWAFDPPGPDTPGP
Assay: Inhibition of bovine recombinant eNOS using [3H]L-arginine substrate assessed as formation of [3H]L-citruline by liquid scintillation counting analysis
Procedure, shortened: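 Recombinant enzyme inhibition was read as [3H]L-citrulline formed from [3H]L-arginine. Each inhibitor was tested at seven concentrations in triplicate, with IC50 given as mean ± SD. Selectivity is the eNOS IC50 divided by the iNOS IC50.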

## CC(=N)NCc1cccc(CN)c1 [1400W]
  IC50: 350 µM
